Tests used:
Test in all cases: Octet
1C11_H3_L3.141 = molecular target: 1C11_H3_L3.141
1C11_H3_L3.142 = molecular target: 1C11_H3_L3.142
1C11_H3_L3.125 = molecular target: 1C11_H3_L3.125
1C11_H3_L3.62 = molecular target: 1C11_H3_L3.62
1C11_H3_L3.1 = molecular target: 1C11_H3_L3.1
1C11_H3_L3.23 = molecular target: 1C11_H3_L3.23
1C11_H3_L3.59 = molecular target: 1C11_H3_L3.59
1C11_H3_L3.32 = molecular target: 1C11_H3_L3.32
1C11_H3_L3.3 = molecular target: 1C11_H3_L3.3
1C11_H3_L3.122 = molecular target: 1C11_H3_L3.122
1C11_H3_L3.113 = molecular target: 1C11_H3_L3.113
1C11_H3_L3.86 = molecular target: 1C11_H3_L3.86
1C11_H3_L3.94 = molecular target: 1C11_H3_L3.94
1C11_H3_L3.46 = molecular target: 1C11_H3_L3.46
1C11_H3_L3.63 = molecular target: 1C11_H3_L3.63
1C11_H3_L3.73 = molecular target: 1C11_H3_L3.73
1C11_H3_L3.132 = molecular target: 1C11_H3_L3.132
1C11_H3_L3.69 = molecular target: 1C11_H3_L3.69
1C11_H3_L3.15 = molecular target: 1C11_H3_L3.15
1C11_H3_L3.81 = molecular target: 1C11_H3_L3.81
1C11_H3_L3.124 = molecular target: 1C11_H3_L3.124
1C11_H3_L3.57 = molecular target: 1C11_H3_L3.57
1C11_H3_L3.47 = molecular target: 1C11_H3_L3.47
1C11_H3_L3.92 = molecular target: 1C11_H3_L3.92
1C11_H3_L3.28 = molecular target: 1C11_H3_L3.28
1C11_H3_L3.87 = molecular target: 1C11_H3_L3.87
1C11_H3.81_L3 = molecular target: 1C11_H3.81_L3
1C11_H3.172_L3 = molecular target: 1C11_H3.172_L3
1C11_H3.84_L3 = molecular target: 1C11_H3.84_L3
1C11_H3_L3.96 = molecular target: 1C11_H3_L3.96
1C11_H3_L3.105 = molecular target: 1C11_H3_L3.105
[1] = molecular target: 1C11_H3.224_L3.144 (XENP25336)
[2] = molecular target: 1C11_H3.234_L3.144 (XENP25835)
[3] = molecular target: 1C11_H3.224_L3.148 (XENP25337)
[4] = molecular target: 1C11_H3.228_L3.144 (XENP25833)
[5] = molecular target: 1C11_H3_L3.142 (XENP25342)
[6] = molecular target: 1C11_H3.234_L3.148 (XENP25836)
[7] = molecular target: 1C11_H3.228_L3.148 (XENP25834)
[8] = molecular target: 1C11_H3.225_L3 (XENP25324)
[9] = molecular target: 1C11_H3.223_L3 (XENP25322)
[10] = molecular target: 1C11_H3.224_L3 (XENP25323)
[11] = molecular target: 1C11_H3.226_L3 (XENP25325)

B1: PD-1 (receptor)
chain: LDSPDRPWNPPTFSPALLVVTEGDNATFTCSFSNTSESFVLNWYRMSPSNQTDKLAAFPEDRSQPGQDCRFRVTQLPNGRDFHMSVVRARRNDSGTYLCGAISLAPKAQIKESLRAELRVTERRAEVPTAHPSPSPRPAGQFQ
Kd (1C11_H3_L3.141): 33.7 nM
Kd (1C11_H3_L3.142): 35.5 nM
Kd (1C11_H3_L3.125): 6.81 nM
Kd (1C11_H3_L3.62): 15.5 nM
Kd (1C11_H3_L3.1): 9.95 nM
Kd (1C11_H3_L3.23): 38.7 nM
Kd (1C11_H3_L3.59): 10.3 nM
Kd (1C11_H3_L3.32): 22 nM
Kd (1C11_H3_L3.3): 15.4 nM
Kd (1C11_H3_L3.122): 1.16 nM
Kd (1C11_H3_L3.113): 19.8 nM
Kd (1C11_H3_L3.86): 19.4 nM
Kd (1C11_H3_L3.94): 18.5 nM
Kd (1C11_H3_L3.46): 18.8 nM
Kd (1C11_H3_L3.63): 45.1 nM
Kd (1C11_H3_L3.73): 11.9 nM
Kd (1C11_H3_L3.132): 16.3 nM
Kd (1C11_H3_L3.69): 33.8 nM
Kd (1C11_H3_L3.15): 15 nM
Kd (1C11_H3_L3.81): 23.3 nM
Kd (1C11_H3_L3.124): 16.2 nM
Kd (1C11_H3_L3.57): 14.5 nM
Kd (1C11_H3_L3.47): 12.1 nM
Kd (1C11_H3_L3.92): 18.9 nM
Kd (1C11_H3_L3.28): 15.7 nM
Kd (1C11_H3_L3.87): 21.7 nM
Kd (1C11_H3.81_L3): 22.2 nM
Kd (1C11_H3.172_L3): 24.1 nM
Kd (1C11_H3.84_L3): 20.1 nM
Kd (1C11_H3_L3.96): 26.5 nM
Kd (1C11_H3_L3.105): 20.4 nM
Kd [1]: 33.1 nM
Kd [2]: 27.4 nM
Kd [3]: 31.2 nM
Kd [4]: 38.8 nM
Kd [5]: 35.5 nM
Kd [6]: 37.5 nM
Kd [7]: 41.9 nM
Kd [8]: 32.2 nM
Kd [9]: 32.1 nM
Kd [10]: 30.6 nM
Kd [11]: 33.5 nM
